≈ marks a conversion by molar mass, not a printed value.

Results on two compounds are retold here after patent US20070053934A1, “Polyvalent multimeric composition containing active polypeptides, pharmaceutical compositions and methods of using the same” (priority 2005, published 2007).

Data set [1] relates to fresh sheep erythrocytes. The experiment in a line: Hemolysis assay HD50 (Examples 1B and 2). The class given is cell-based. As to the method: Stock solutions of samples were prepared by the same procedure as in antibacterial assays. Hemolytic activity of monomeric peptides and multivalent ones were assessed on fresh sheep erythrocytes (Fitzgerald, Inc., MA) in 35 mM PBS buffer, 150 mM NaCl, pH 7.0. Peptide concentrations corresponding to 50% hemolysis were used as hemolytic dose (HD50) determined from dose-response curve (National Committee for Clinical Laboratory Standards. 2004, Methods for dilution antimicrobial susceptibility tests for bacteria that grow aerobically; sixth edition, approved standard M100-S14. National Committee for Clinical Laboratory Standards. Wayne, Pa.). Aliquots of cell suspension were mixed in eppendorf tubes with varying volumes of stocks and buffer for a total volume of 1 mL. Solutions containing same volume of DMSO without samples were used as control. These tubes were incubated at 37° C. for 1 hr, and then spun down at 3,000 rpm for 5 mins. The resulting supernatant was diluted by a factor of 40 in distilled water. The absorbances of the dilutions at 540 nm were measured in the Genesys 5 Spectrophotometer (Thermo Spectronic, Inc., NY). Zero hemolysis and 100% hemolysis controls were obtained by incubating the cells with buffer and 20% Tween, respectively. Hemolytic index (HI) was defined as HI=HD50/IC50. […]

The subject of data set [2] is sheep red blood cells. The experiment in a line: Hemolysis assay (Example 1A). The data set is classed as cell-based. Particulars: 10% suspension of sheep red blood cells, 37° C., 1 hr. The method, then: Hemolytic activity of the peptides was determined on a 10% suspension of sheep red blood cells in 10 mM Tris-HCl buffer, 150 mM NaCl, pH 7.0. 800 μL of this suspension were mixed in 1.5 mL Eppendorf tubes with varying volumes of peptide stock and buffers for a total volume of 1 mL. […] After the hour, the tubes were spun down at 3,000 rpm on a table top centrifuge for 5 mins, and the resulting supernatant was diluted by a factor of 40 in distilled water. The absorbance of the dilutions at 540 nm was measured in the Genesys 5 Spectrophotometer (Thermo Spectronic). Zero hemolysis and 100% hemolysis controls were determined by incubating the cells with buffer and 20% Tween, respectively. The final concentrations of peptides were designed to approximate 0.1×, 1×, 2×, 5×, and 10× of the MIC value for growth inhibition, to evaluate the potential therapeutic ratio.

In data set [3] the test system is E. coli. To be noted: 18 h.
In data set [4] the test system is B. subtilis. To be noted: 18 h.
Data set [5] deals with B. subtilis. Particulars: 6 h.

As to `CC(=O)N[C@@H](CCCNC(=N)N)C(=O)N[C@@H](CCCNC(=N)N)C(=O)N[C@@H](Cc1c[nH]c2ccccc12)C(=O)N[C@@H](Cc1c[nH]c2ccccc12)C(N)=O` [Monomeric RRWW—NH2, Ac—RRWW—NH2], in data set [1], the “HD50 red blood cell” value worked out at 2280 µg/mL. Moreover, in data set [2], the “Hemolytic Activity (10%)” value was 1250 µg/mL. In data set [3], the “IC50 E. coli” value came out at 586 µg/mL (≈ 788 µM). Also, the “IC50 B. subtilis” value in data set [4] is 131 µg/mL (≈ 176 µM). Also, in data set [5], the “MIC B. subtilis” value worked out at 100 µg/mL (≈ 134 µM).
The matching figures for `CC(=O)N[C@@H](CCCNC(=N)N)C(=O)N[C@@H](Cc1c[nH]c2ccccc12)C(=O)N[C@@H](CCCNC(=N)N)C(=O)N[C@@H](Cc1c[nH]c2ccccc12)C(N)=O` [Monomeric RWRW—NH2, Ac—RWRW—NH2]: 1850 µg/mL, 2250 µg/mL, 510 µg/mL (≈ 686 µM), 142 µg/mL (≈ 191 µM) and 90 µg/mL (≈ 121 µM).
